Experimental data published in patent US20260382772A1, “KETO-AMIDE-BASED FIBROBLAST ACTIVATION PROTEIN-TARGETED LIGAND LINKED TO AN IMAGING OR THERAPEUTIC AGENT, COMPOSITIONS, AND METHODS OF USE” (published 2026).

System: 4T1 tumor-bearing mice
Test: Biodistribution of ^111In-FAP8-PEG3-IP-DOTA in 4T1 tumor-bearing mice
Source text: Balb/c mice were inoculated on their shoulders with 1×10^5 cells of 4T1 cells, whereas nu/nu mice were inoculated on their shoulders with 5×10^6 cells of HT29 (a human colorectal adenocarcinoma cell line), KB (tumor cell line HeLa), MDA-MB-231 (a human breast cancer cell line), or HEK-FAP cells.
For the first study, two different tumor-bearing mice (4T1 and HEK-hFAP) were intravenously injected with [^111In] In-FAP8-PEG3-IP-DOTA (In-Conjugate 24′) (0.74 MBq/mouse, 1-10 nmol/mouse) or [^177Lu] Lu-FAP8-PEG3-IP-DOTA (Lu-Conjugate 24′) (7.4 MBq/mouse, 0.3 nmol-5 nmol/mouse).
At indicated time points (1 hour, 4 hours, 24 hours, 72 hours, 120 hours, and 168 hours post-injection), mice were assessed and/or euthanized by CO2 asphyxiation and organs of interest were harvested, excess blood was rinsed, dried, weighed, and then analyzed by gamma counter, and the results were decay corrected and presented as the percentage of the injected dose per gram of tissue (% ID/g)±standard deviation (SD).
Dose escalation analyses of [^111In] In-FAP8-PEG3-IP-DOTA (In-Conjugate 24′) in 4T1 tumor-bearing mice was performed (n=3) with 1.0 nmol/mouse. 2.5 nmol/mouse, 5.0 nmol/mouse, or 10.0 nmol/mouse doses of Conjugate 24′ provided with constant radioactivity (0.74 MBq/mouse) and measured at three different times (4 hours, 24 hours, and 120 hours post-injection).

Structure (SMILES): COc1ccc(CNC(=O)C(=O)[C@@H]2CC(F)(F)CN2C(=O)CNC(=O)c2ccnc3ccc(OCC(=O)NCCOCCOCCOCCNC(=O)[C@H](CCCCNC(=O)CCCc4ccc(I)cc4)NC(=O)CN4CCN(CC(=O)O)CCN(CC(=O)O)CCN(CC(=O)O)CC4)cc23)cc1OC.[In+3]
- Blood uptake (1 nmol/mouse, 4 h): 26.37 ± 5.78 % ID/g
- Bone marrow uptake (1 nmol/mouse, 4 h): 2 ± 1.18 % ID/g
- Heart uptake (1 nmol/mouse, 4 h): 1.51 ± 0.38 % ID/g
- Intestine uptake (1 nmol/mouse, 4 h): 1.86 ± 1.30 % ID/g
- Kidneys uptake (1 nmol/mouse, 4 h): 4.42 ± 0.44 % ID/g
- Liver uptake (1 nmol/mouse, 4 h): 3.86 ± 0.405 % ID/g
- Lungs uptake (1 nmol/mouse, 4 h): 3.50 ± 0.69 % ID/g
- Spleen uptake (1 nmol/mouse, 4 h): 0.96 ± 0.02 % ID/g
- Stomach uptake (1 nmol/mouse, 4 h): 1.49 ± 0.251 % ID/g
- Tumor uptake (1 nmol/mouse, 4 h): 8.51 ± 2.63 % ID/g
- Tumor/Blood (1 nmol/mouse, 4 h): 0.67 ± 0.37
- Tumor/Bone marrow (1 nmol/mouse, 4 h): 4.96 ± 1.62
- Tumor/Kidneys (1 nmol/mouse, 4 h): 2.62 ± 0.57
- Blood uptake (1 nmol/mouse, 24 h): 8.39 ± 3.60 % ID/g
- Bone marrow uptake (1 nmol/mouse, 24 h): 0.48 ± 0.38 % ID/g
- Heart uptake (1 nmol/mouse, 24 h): 2.78 ± 1.49 % ID/g
- Intestine uptake (1 nmol/mouse, 24 h): 1.54 ± 1.22 % ID/g
- Kidneys uptake (1 nmol/mouse, 24 h): 3.53 ± 1.61 % ID/g
- Liver uptake (1 nmol/mouse, 24 h): 2.60 ± 0.49 % ID/g
- Lungs uptake (1 nmol/mouse, 24 h): 2.18 ± 0.83 % ID/g
- Spleen uptake (1 nmol/mouse, 24 h): 1.97 ± 1.18 % ID/g
- Stomach uptake (1 nmol/mouse, 24 h): 0.88 ± 0.511 % ID/g
- Tumor uptake (1 nmol/mouse, 24 h): 11.14 ± 1.63 % ID/g
- Tumor/Blood (1 nmol/mouse, 24 h): 1.24 ± 0.90
- Tumor/Bone marrow (1 nmol/mouse, 24 h): 30.91 ± 33.28
- Tumor/Kidneys (1 nmol/mouse, 24 h): 3.34 ± 1.12
- Blood uptake (1 nmol/mouse, 120 h): 1.18 ± 0.17 % ID/g
- Bone marrow uptake (1 nmol/mouse, 120 h): 0.53 ± 0.54 % ID/g
- Heart uptake (1 nmol/mouse, 120 h): 0.64 ± 0.12 % ID/g
- Intestine uptake (1 nmol/mouse, 120 h): 1.72 ± 2.09 % ID/g
- Kidneys uptake (1 nmol/mouse, 120 h): 1.47 ± 0.63 % ID/g
- Liver uptake (1 nmol/mouse, 120 h): 3.94 ± 0.29 % ID/g
- Lungs uptake (1 nmol/mouse, 120 h): 0.63 ± 0.118 % ID/g
- Spleen uptake (1 nmol/mouse, 120 h): 1.32 ± 0.19 % ID/g
- Stomach uptake (1 nmol/mouse, 120 h): 0.57 ± 0.18 % ID/g
- Tumor uptake (1 nmol/mouse, 120 h): 14.9 ± 4.38 % ID/g
- Tumor/Blood (1 nmol/mouse, 120 h): 12.47 ± 1.50
- Tumor/Bone marrow (1 nmol/mouse, 120 h): 43.72 ± 18.90
- Tumor/Kidneys (1 nmol/mouse, 120 h): 11.67 ± 5.05
- Blood uptake (2.5 nmol/mouse, 4 h): 40.25 ± 6.03 % ID/g
- Bone marrow uptake (2.5 nmol/mouse, 4 h): 2.01 ± 1.41 % ID/g
- Heart uptake (2.5 nmol/mouse, 4 h): 3.55 ± 0.75 % ID/g
- Intestine uptake (2.5 nmol/mouse, 4 h): 3.13 ± 1.25 % ID/g
- Kidneys uptake (2.5 nmol/mouse, 4 h): 10.07 ± 4.88 % ID/g
- Liver uptake (2.5 nmol/mouse, 4 h): 5.43 ± 0.702 % ID/g
- Lungs uptake (2.5 nmol/mouse, 4 h): 11.42 ± 4.95 % ID/g
- Spleen uptake (2.5 nmol/mouse, 4 h): 1.70 ± 1.06 % ID/g
- Stomach uptake (2.5 nmol/mouse, 4 h): 1.40 ± 0.359 % ID/g
- Tumor uptake (2.5 nmol/mouse, 4 h): 11.38 ± 3.80 % ID/g
- Tumor/Blood (2.5 nmol/mouse, 4 h): 0.89 ± 0.85
- Tumor/Bone marrow (2.5 nmol/mouse, 4 h): 4.16 ± 2.52
- Tumor/Kidneys (2.5 nmol/mouse, 4 h): 1.17 ± 0.19
- Blood uptake (2.5 nmol/mouse, 24 h): 7.19 ± 5.02 % ID/g
- Bone marrow uptake (2.5 nmol/mouse, 24 h): 1.68 ± 1.036 % ID/g
- Heart uptake (2.5 nmol/mouse, 24 h): 2.35 ± 1.84 % ID/g
- Intestine uptake (2.5 nmol/mouse, 24 h): 1.57 ± 0.72 % ID/g
- Kidneys uptake (2.5 nmol/mouse, 24 h): 8.90 ± 3.91 % ID/g
- Liver uptake (2.5 nmol/mouse, 24 h): 3.83 ± 1.41 % ID/g
- Lungs uptake (2.5 nmol/mouse, 24 h): 1.98 ± 0.809 % ID/g
- Spleen uptake (2.5 nmol/mouse, 24 h): 2.19 ± 0.80 % ID/g
- Stomach uptake (2.5 nmol/mouse, 24 h): 0.88 ± 0.22 % ID/g
- Tumor uptake (2.5 nmol/mouse, 24 h): 9.92 ± 4.51 % ID/g
- Tumor/Blood (2.5 nmol/mouse, 24 h): 1.61 ± 0.50
- Tumor/Bone marrow (2.5 nmol/mouse, 24 h): 10.23 ± 8.23
- Tumor/Kidneys (2.5 nmol/mouse, 24 h): 1.17 ± 0.19
- Blood uptake (2.5 nmol/mouse, 120 h): 0.75 ± 0.34 % ID/g
- Bone marrow uptake (2.5 nmol/mouse, 120 h): 0.75 ± 0.49 % ID/g
- Heart uptake (2.5 nmol/mouse, 120 h): 0.77 ± 0.42 % ID/g
- Intestine uptake (2.5 nmol/mouse, 120 h): 0.96 ± 0.78 % ID/g
- Kidneys uptake (2.5 nmol/mouse, 120 h): 3.67 ± 2.65 % ID/g
- Liver uptake (2.5 nmol/mouse, 120 h): 2.48 ± 1.37 % ID/g
- Lungs uptake (2.5 nmol/mouse, 120 h): 0.68 ± 0.14 % ID/g
- Spleen uptake (2.5 nmol/mouse, 120 h): 1.42 ± 0.78 % ID/g
- Stomach uptake (2.5 nmol/mouse, 120 h): 0.51 ± 0.32 % ID/g
- Tumor uptake (2.5 nmol/mouse, 120 h): 8.16 ± 3.52 % ID/g
- Tumor/Blood (2.5 nmol/mouse, 120 h): 6.64 ± 3.24
- Tumor/Bone marrow (2.5 nmol/mouse, 120 h): 7.57 ± 4.45
- Tumor/Kidneys (2.5 nmol/mouse, 120 h): 1.37 ± 0.45
- Blood uptake (5.0 nmol/mouse, 4 h): 21.36 ± 4.88 % ID/g
- Bone marrow uptake (5.0 nmol/mouse, 4 h): 1.93 ± 2.18 % ID/g
- Heart uptake (5.0 nmol/mouse, 4 h): 1.50 ± 0.38 % ID/g
- Intestine uptake (5.0 nmol/mouse, 4 h): 2.12 ± 1.15 % ID/g
- Kidneys uptake (5.0 nmol/mouse, 4 h): 9.17 ± 2.30 % ID/g
- Liver uptake (5.0 nmol/mouse, 4 h): 7.34 ± 2.16 % ID/g
- Lungs uptake (5.0 nmol/mouse, 4 h): 5.93 ± 0.86 % ID/g
- Spleen uptake (5.0 nmol/mouse, 4 h): 1.3 ± 0.27 % ID/g
- Stomach uptake (5.0 nmol/mouse, 4 h): 1.56 ± 0.30 % ID/g
- Tumor uptake (5.0 nmol/mouse, 4 h): 10.66 ± 3.68 % ID/g
- Tumor/Blood (5.0 nmol/mouse, 4 h): 0.55 ± 0.20
- Tumor/Bone marrow (5.0 nmol/mouse, 4 h): 15.60 ± 19.52
- Tumor/Kidneys (5.0 nmol/mouse, 4 h): 1.09 ± 0.18
- Blood uptake (5.0 nmol/mouse, 24 h): 10.42 ± 1.46 % ID/g
- Bone marrow uptake (5.0 nmol/mouse, 24 h): 1.8 ± 1.067 % ID/g
- Heart uptake (5.0 nmol/mouse, 24 h): 0.73 ± 0.101 % ID/g
- Intestine uptake (5.0 nmol/mouse, 24 h): 1.3 ± 0.65 % ID/g
- Kidneys uptake (5.0 nmol/mouse, 24 h): 7.50 ± 1.68 % ID/g
- Liver uptake (5.0 nmol/mouse, 24 h): 3.85 ± 0.74 % ID/g
- Lungs uptake (5.0 nmol/mouse, 24 h): 2.14 ± 0.29 % ID/g
- Spleen uptake (5.0 nmol/mouse, 24 h): 3.57 ± 0.10 % ID/g
- Stomach uptake (5.0 nmol/mouse, 24 h): 0.8 ± 0.23 % ID/g
- Tumor uptake (5.0 nmol/mouse, 24 h): 10.17 ± 0.605 % ID/g
- Tumor/Blood (5.0 nmol/mouse, 24 h): 0.98 ± 0.07
- Tumor/Bone marrow (5.0 nmol/mouse, 24 h): 7.69 ± 4.38
- Tumor/Kidneys (5.0 nmol/mouse, 24 h): 1.41 ± 0.28
- Blood uptake (5.0 nmol/mouse, 120 h): 0.98 ± 1.01 % ID/g
- Bone marrow uptake (5.0 nmol/mouse, 120 h): 0.87 ± 0.79 % ID/g
- Heart uptake (5.0 nmol/mouse, 120 h): 0.57 ± 0.54 % ID/g
- Intestine uptake (5.0 nmol/mouse, 120 h): 0.50 ± 0.35 % ID/g
- Kidneys uptake (5.0 nmol/mouse, 120 h): 1.90 ± 0.75 % ID/g
- Liver uptake (5.0 nmol/mouse, 120 h): 2.66 ± 0.28 % ID/g
- Lungs uptake (5.0 nmol/mouse, 120 h): 0.81 ± 0.44 % ID/g
- Spleen uptake (5.0 nmol/mouse, 120 h): 2.07 ± 1.24 % ID/g
- Stomach uptake (5.0 nmol/mouse, 120 h): 0.44 ± 0.26 % ID/g
- Tumor uptake (5.0 nmol/mouse, 120 h): 4.6 ± 0.85 % ID/g
- Blood uptake (10.0 nmol/mouse, 4 h): 25.24 ± 9.08 % ID/g
- Bone marrow uptake (10.0 nmol/mouse, 4 h): 1.56 ± 0.67 % ID/g
- Heart uptake (10.0 nmol/mouse, 4 h): 2.07 ± 0.88 % ID/g
- Intestine uptake (10.0 nmol/mouse, 4 h): 2.18 ± 1.07 % ID/g
- Kidneys uptake (10.0 nmol/mouse, 4 h): 5.74 ± 0.63 % ID/g
- Liver uptake (10.0 nmol/mouse, 4 h): 5.35 ± 0.70 % ID/g
- Lungs uptake (10.0 nmol/mouse, 4 h): 4.15 ± 0.93 % ID/g
- Spleen uptake (10.0 nmol/mouse, 4 h): 1.81 ± 0.74 % ID/g
- Stomach uptake (10.0 nmol/mouse, 4 h): 2.10 ± 0.97 % ID/g
- Tumor uptake (10.0 nmol/mouse, 4 h): 11.75 ± 1.83 % ID/g
- Tumor/Bone marrow (10.0 nmol/mouse, 4 h): 8.76 ± 3.85
- Blood uptake (10.0 nmol/mouse, 24 h): 10.26 ± 1.23 % ID/g
- Bone marrow uptake (10.0 nmol/mouse, 24 h): 2.64 ± 1.31 % ID/g
- Heart uptake (10.0 nmol/mouse, 24 h): 0.51 ± 0.18 % ID/g
- Intestine uptake (10.0 nmol/mouse, 24 h): 0.92 ± 0.18 % ID/g
- Kidneys uptake (10.0 nmol/mouse, 24 h): 5.17 ± 2.82 % ID/g
- Liver uptake (10.0 nmol/mouse, 24 h): 2.36 ± 0.28 % ID/g
- Lungs uptake (10.0 nmol/mouse, 24 h): 2.00 ± 0.51 % ID/g
- Spleen uptake (10.0 nmol/mouse, 24 h): 2.33 ± 1.42 % ID/g
- Stomach uptake (10.0 nmol/mouse, 24 h): 0.78 ± 0.29 % ID/g
- Tumor uptake (10.0 nmol/mouse, 24 h): 9.32 ± 4.94 % ID/g
- Tumor/Blood (10.0 nmol/mouse, 24 h): 0.89 ± 0.16
- Tumor/Bone marrow (10.0 nmol/mouse, 24 h): 4.22 ± 2.0
- Tumor/Kidneys (10.0 nmol/mouse, 24 h): 2.10 ± 0.95
- Blood uptake (10.0 nmol/mouse, 120 h): 0.90 ± 0.14 % ID/g
- Bone marrow uptake (10.0 nmol/mouse, 120 h): 0.88 ± 0.14 % ID/g
- Heart uptake (10.0 nmol/mouse, 120 h): 1.10 ± 1.33 % ID/g
- Intestine uptake (10.0 nmol/mouse, 120 h): 0.65 ± 0.10 % ID/g
- Kidneys uptake (10.0 nmol/mouse, 120 h): 2.71 ± 1.54 % ID/g
- Liver uptake (10.0 nmol/mouse, 120 h): 4.08 ± 1.71 % ID/g
- Lungs uptake (10.0 nmol/mouse, 120 h): 0.76 ± 0.13 % ID/g
- Spleen uptake (10.0 nmol/mouse, 120 h): 3.85 ± 0.88 % ID/g
- Stomach uptake (10.0 nmol/mouse, 120 h): 0.75 ± 0.49 % ID/g
- Tumor uptake (10.0 nmol/mouse, 120 h): 4.94 ± 0.70 % ID/g
- tumor targeting / off-target concentrations (Tables 1-8, FIG. 35 (summary)): targeted the tumors, with minimal off-target concentrations
